Tests used:
CYP3A4 = CYP3A4 (Homo sapiens, UniProt P08684); settings: recombinant enzyme
[1] = tested on: ATRA 4-hydroxylase activity (CYP) of pig liver microsomes; assay: In vitro ATRA 4-hydroxylase (CYP) inhibition assay using pig liver microsomes; settings: read-out: IC50 (μM), in vitro 4-hydroxylase inhibition assay, 1 μM ATRA, 5 mM NADPH, 37° C., 90 min

The chains behind the UniProt entries cited, without tags or fusion partners.
UniProt P08684, whole entry: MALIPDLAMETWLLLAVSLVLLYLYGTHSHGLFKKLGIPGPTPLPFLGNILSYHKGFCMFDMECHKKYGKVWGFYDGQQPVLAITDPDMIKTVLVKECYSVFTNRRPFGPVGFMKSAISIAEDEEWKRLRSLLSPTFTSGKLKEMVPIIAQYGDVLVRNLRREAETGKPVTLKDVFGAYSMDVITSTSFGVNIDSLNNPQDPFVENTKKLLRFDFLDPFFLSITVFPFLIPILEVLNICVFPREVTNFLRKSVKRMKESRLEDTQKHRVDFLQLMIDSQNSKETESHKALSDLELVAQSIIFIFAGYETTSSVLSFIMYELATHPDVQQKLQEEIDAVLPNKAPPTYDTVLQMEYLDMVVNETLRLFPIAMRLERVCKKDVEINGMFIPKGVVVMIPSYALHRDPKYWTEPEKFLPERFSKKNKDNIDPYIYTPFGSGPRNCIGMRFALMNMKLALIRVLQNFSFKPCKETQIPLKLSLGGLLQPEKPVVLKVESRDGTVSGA

Row | IC50 [1] | Compound | Hit / no hit for inhibition of CYP3A4 (CYP3A4) | IC50 (CYP3A4)
1 | – | Diltiazem | no hit >10 uM (key: hit: strong inhibition (IC50 value<10 μM); no hit: weak/no inhibition (IC50 value>10 μM)) | > 10 µM
2 | 47.5 µM | CC(C)(C)C(=O)C(Oc1ccc(Cl)cc1)n1ccnc1 (stereo not drawn) [Climbazole] | – | –
